Experiment: physchem

| Structure (SMILES) | logP |
| --- | --- |
| CC/C=C\CC/C=C/C=O [(2E,6Z)-2,6-NONADIENAL″, (2E,6Z)-2,6-NONADIENAL] | 2.56 |
| CCCCC/C=C/CCC=O [(E)-4-DECENAL] | 3.73 |

From US11427783B2, “Perfuming compositions” (Firmenich SA, priority 2016, dated 2022)
